Experimental data published in ChEMBL document CHEMBL5316269, “Rational Design of a New RXR Agonist Scaffold Enabling Single-Subtype Preference for RXRα, RXRβ, and RXRγ” (J Med Chem, 2023).

Protein sequences, listed by entry. Tags and fused reporters are not part of them. Lines headed by an entry give the natural chain unless they say otherwise; changes in a name come on top.
UniProt P55055, whole entry: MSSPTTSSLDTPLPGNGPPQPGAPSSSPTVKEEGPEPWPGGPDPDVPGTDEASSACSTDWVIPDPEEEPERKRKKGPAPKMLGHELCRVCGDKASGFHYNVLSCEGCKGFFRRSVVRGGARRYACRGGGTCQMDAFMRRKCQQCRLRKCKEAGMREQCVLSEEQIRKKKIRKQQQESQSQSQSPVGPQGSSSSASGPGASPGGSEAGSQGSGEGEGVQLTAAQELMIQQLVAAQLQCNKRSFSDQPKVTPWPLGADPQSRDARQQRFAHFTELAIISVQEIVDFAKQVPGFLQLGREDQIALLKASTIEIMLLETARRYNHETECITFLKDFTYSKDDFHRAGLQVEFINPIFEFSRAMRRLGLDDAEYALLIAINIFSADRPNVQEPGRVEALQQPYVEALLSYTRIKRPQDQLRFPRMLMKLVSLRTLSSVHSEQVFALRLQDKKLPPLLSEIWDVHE
UniProt P37231: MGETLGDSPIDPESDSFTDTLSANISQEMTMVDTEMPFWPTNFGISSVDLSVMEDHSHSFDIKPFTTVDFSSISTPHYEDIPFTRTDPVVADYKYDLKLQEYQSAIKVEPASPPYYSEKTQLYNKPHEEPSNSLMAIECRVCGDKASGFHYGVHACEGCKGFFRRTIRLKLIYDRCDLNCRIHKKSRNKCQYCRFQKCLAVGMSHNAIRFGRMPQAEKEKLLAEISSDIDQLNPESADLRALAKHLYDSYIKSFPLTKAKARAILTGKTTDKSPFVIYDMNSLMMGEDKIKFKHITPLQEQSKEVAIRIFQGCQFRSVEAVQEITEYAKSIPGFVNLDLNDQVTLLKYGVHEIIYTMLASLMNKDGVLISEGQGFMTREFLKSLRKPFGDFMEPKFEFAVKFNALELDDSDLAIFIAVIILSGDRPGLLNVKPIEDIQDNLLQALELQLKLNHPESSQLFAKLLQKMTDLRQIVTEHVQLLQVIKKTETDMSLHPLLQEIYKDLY
UniProt P10826, whole entry: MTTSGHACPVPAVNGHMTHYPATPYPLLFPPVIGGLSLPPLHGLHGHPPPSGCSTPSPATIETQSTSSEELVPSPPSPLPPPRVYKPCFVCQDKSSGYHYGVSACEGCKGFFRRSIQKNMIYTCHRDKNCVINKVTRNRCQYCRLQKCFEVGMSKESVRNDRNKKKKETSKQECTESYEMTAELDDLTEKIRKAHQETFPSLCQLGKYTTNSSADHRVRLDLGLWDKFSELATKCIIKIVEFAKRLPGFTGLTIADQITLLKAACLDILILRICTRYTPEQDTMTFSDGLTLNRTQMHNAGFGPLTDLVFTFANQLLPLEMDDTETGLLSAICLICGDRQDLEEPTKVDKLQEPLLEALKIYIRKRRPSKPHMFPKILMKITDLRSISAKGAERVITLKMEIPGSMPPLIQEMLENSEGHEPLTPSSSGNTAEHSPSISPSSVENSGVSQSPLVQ

How the values were obtained:
[1] = target: T1, Peroxisome proliferator-activated receptor alpha (Homo sapiens) (UniProt Q07869); assay: Agonist activity at human GAL4-fused PPARalpha LBD expressed in human HEK293T cells cotransfected with pFR-Luc and pRL-SV40 assessed as increase in luciferase activity at 30 uM incubated for 16 hrs by Dual-Glo luciferase assay relative to control; type: cell-based
T1 sequence (whole entry): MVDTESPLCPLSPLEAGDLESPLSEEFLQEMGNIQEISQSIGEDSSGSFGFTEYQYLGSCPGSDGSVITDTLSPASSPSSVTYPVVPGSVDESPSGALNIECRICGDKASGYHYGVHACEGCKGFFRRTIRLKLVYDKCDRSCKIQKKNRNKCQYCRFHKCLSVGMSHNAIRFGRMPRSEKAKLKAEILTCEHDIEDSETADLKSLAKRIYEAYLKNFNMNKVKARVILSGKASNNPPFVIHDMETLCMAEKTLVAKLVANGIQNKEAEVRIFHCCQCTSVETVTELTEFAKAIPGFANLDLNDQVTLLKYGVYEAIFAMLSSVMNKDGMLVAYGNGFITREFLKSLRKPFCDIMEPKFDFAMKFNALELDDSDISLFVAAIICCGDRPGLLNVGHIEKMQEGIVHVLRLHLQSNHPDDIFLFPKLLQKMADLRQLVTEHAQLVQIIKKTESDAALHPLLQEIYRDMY

[2] = target: T2, Peroxisome proliferator-activated receptor delta (Homo sapiens) (UniProt Q03181); assay: Agonist activity at human GAL4-fused PPARdelta LBD expressed in human HEK293T cells cotransfected with pFR-Luc and pRL-SV40 assessed as increase in luciferase activity at 30 uM incubated for 16 hrs by Dual-Glo luciferase assay relative to control; type: cell-based
T2 sequence (whole entry): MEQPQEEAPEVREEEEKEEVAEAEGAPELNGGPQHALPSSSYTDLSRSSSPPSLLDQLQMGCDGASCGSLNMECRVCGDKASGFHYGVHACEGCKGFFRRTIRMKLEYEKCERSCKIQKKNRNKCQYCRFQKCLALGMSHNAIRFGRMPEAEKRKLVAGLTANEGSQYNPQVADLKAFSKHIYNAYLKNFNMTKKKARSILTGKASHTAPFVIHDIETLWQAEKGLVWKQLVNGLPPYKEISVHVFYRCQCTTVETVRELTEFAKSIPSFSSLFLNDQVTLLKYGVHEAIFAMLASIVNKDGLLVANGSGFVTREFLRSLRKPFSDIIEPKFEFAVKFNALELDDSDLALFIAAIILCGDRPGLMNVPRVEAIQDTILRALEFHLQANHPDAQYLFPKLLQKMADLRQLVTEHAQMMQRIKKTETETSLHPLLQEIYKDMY

[3] = target: Oxysterols receptor LXR-beta (Homo sapiens) (UniProt P55055); assay: Agonist activity at human GAL4-fused LXRbeta LBD expressed in human HEK293T cells cotransfected with pFR-Luc and pRL-SV40 assessed as increase in luciferase activity at 30 uM incubated for 16 hrs by Dual-Glo luciferase assay relative to control; type: cell-based
[4] = target: Peroxisome proliferator-activated receptor gamma (Homo sapiens) (UniProt P37231); assay: Agonist activity at human GAL4-fused PPARgamma LBD expressed in human HEK293T cells cotransfected with pFR-Luc and pRL-SV40 assessed as increase in luciferase activity at 30 uM incubated for 16 hrs by Dual-Glo luciferase assay relative to control; type: cell-based
[5] = target: T3, Bile acid receptor (Homo sapiens) (UniProt Q96RI1); assay: Agonist activity at human GAL4-fused FXR LBD expressed in human HEK293T cells cotransfected with pFR-Luc and pRL-SV40 assessed as increase in luciferase activity at 1 uM incubated for 16 hrs by Dual-Glo luciferase assay relative to control; type: cell-based
T3 sequence (whole entry): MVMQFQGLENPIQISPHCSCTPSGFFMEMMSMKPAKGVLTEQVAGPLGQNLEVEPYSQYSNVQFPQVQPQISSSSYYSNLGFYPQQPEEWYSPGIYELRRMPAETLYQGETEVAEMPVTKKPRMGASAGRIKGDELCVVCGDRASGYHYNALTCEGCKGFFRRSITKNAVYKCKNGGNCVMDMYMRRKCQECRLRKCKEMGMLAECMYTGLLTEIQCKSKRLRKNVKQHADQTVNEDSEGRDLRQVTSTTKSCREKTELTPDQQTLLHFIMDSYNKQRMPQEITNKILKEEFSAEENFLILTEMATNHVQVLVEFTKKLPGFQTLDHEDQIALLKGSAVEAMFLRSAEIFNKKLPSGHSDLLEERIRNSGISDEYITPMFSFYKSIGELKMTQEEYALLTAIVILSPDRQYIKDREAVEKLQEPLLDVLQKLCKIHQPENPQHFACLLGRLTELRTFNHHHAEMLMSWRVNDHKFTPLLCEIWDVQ

[6] = target: Oxysterols receptor LXR-beta (Homo sapiens) (UniProt P55055); assay: Agonist activity at human GAL4-fused LXRbeta LBD expressed in human HEK293T cells cotransfected with pFR-Luc and pRL-SV40 assessed as increase in luciferase activity at 1 uM incubated for 16 hrs by Dual-Glo luciferase assay relative to control; type: cell-based
[7] = target: T4, Retinoic acid receptor RXR-alpha (Homo sapiens) (UniProt P19793); assay: Agonist activity at human RARalpha in human Adipose tissue derived mesenchymal stem cells assessed as increase in adipogenesis at 1 uM incubated for 13 days with media exchanged every 48-72 hrs by Oil-red O staining based analysis; conditions: Adipose tissue derived mesenchymal stem cell, time 13.0 day
T4 sequence (whole entry): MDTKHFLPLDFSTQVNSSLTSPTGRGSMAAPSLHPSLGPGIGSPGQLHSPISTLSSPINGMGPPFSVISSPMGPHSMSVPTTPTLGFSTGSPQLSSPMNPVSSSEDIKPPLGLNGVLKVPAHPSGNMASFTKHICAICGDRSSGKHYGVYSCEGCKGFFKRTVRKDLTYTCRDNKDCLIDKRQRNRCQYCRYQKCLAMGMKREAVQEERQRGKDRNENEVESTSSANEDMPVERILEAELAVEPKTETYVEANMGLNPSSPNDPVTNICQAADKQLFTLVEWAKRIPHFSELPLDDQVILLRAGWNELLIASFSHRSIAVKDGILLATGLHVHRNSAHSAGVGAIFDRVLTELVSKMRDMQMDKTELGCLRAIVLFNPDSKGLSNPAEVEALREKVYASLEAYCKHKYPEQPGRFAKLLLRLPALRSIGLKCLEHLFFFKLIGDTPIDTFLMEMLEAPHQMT

[8] = target: T1, Peroxisome proliferator-activated receptor alpha (Homo sapiens); assay: Agonist activity at human GAL4-fused PPARalpha LBD expressed in human HEK293T cells cotransfected with pFR-Luc and pRL-SV40 assessed as increase in luciferase activity at 1 uM incubated for 16 hrs by Dual-Glo luciferase assay relative to control; type: cell-based
[9] = target: Retinoic acid receptor beta (Homo sapiens) (UniProt P10826); assay: Agonist activity at human GAL4-fused RARbeta LBD expressed in human HEK293T cells cotransfected with pFR-Luc and pRL-SV40 assessed as increase in luciferase activity at 1 uM incubated for 16 hrs by Dual-Glo luciferase assay relative to control; type: cell-based

| Activity [1] [%] | Activity [2] [%] | Activity [3] [%] | Activity [4] [%] | Activity [5] [%] | Activity [6] [%] | Activity [7] | Activity [8] [%] | Activity [9] [%] | Compound |
| --- | --- | --- | --- | --- | --- | --- | --- | --- | --- |
| 5 | 9 | 2 | 14 |  |  |  |  |  | O=C(O)Cc1cccc(COc2cccc3c2CCC3)c1 |
|  |  |  |  | 1 | 2 | inactive | 3 | 1 | Cc1cc(COc2ccc(C)c3c2CCC3)ccc1CCC(=O)O |
| 1 | 2 | 2 | 2 |  |  |  |  |  | Cc1ccc(OCc2ccc(CCC(=O)O)c(F)c2)c2c1CCC2 |

Active and inactive are the calls of the source. No cut-off for these calls is given here.
